Assay results as given in patent US20260159499A1, “COMPOUND AS FAK INHIBITOR AND USE THEREOF” (WIGEN BIOMEDICINE TECHNOLOGY (SHANGHAI) CO., LTD., priority 2021, published 2026).

Protein sequences, listed by entry. Tags and fused reporters are not part of them.
UniProt Q05397, whole entry: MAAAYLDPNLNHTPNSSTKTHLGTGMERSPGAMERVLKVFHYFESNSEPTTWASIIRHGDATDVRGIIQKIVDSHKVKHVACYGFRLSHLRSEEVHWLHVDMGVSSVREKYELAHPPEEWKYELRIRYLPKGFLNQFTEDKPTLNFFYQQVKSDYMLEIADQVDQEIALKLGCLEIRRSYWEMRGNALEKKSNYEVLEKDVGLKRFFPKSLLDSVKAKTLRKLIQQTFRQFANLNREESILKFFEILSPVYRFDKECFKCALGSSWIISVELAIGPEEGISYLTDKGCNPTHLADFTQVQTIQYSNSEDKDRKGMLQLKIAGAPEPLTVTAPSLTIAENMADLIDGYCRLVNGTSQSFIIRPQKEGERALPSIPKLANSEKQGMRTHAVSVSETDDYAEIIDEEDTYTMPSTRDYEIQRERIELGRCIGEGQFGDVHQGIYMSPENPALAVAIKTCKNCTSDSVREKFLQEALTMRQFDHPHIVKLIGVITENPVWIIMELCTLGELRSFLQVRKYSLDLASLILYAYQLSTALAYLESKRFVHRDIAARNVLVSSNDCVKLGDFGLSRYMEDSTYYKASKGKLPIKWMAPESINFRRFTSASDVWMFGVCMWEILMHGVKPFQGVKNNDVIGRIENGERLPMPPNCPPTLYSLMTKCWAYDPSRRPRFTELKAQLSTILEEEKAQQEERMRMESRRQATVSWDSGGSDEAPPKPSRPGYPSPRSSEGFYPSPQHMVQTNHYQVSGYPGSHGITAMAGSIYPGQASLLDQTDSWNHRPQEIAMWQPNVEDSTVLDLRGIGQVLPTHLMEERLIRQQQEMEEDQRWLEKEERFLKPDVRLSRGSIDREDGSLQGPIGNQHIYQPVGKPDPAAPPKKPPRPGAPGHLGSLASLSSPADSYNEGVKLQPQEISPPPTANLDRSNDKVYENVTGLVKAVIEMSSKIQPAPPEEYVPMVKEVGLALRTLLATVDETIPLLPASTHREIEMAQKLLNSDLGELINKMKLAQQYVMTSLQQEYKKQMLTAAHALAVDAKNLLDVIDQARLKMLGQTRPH

What was measured:
[1] = In vivo pharmacokinetic experiment in mice; settings: CD-1 mice
FAK recombinant protein = FAK recombinant protein (Homo sapiens, UniProt Q05397); test: Inhibitory activity against FAK enzyme; settings: read-out: Inhibitory activity against FAK enzyme IC50, TK substrate, ATP
PC3 cells [2] = test: PC3 cell proliferation, 2D activity detection; assay type: cell-based, human; settings: read-out: 2D IC50 against PC3 cells; PC3, 2D, 72 h, class symbol
PC3 cells [3] = test: PC3 cell proliferation, 3D activity detection; assay type: cell-based, human; settings: read-out: 3D IC50 against PC3 cells; PC3, 3D culture, 14 days, class symbol

SMILES	AUC0-last ([1]; injection (IV) 2 mg/kg) [µg·h/mL]	Cl ([1]; injection (IV) 2 mg/kg) [L/h/kg]	T1/2 ([1]; injection (IV) 2 mg/kg) [h]	Vdss ([1]; injection (IV) 2 mg/kg) [L/kg]	Cmax ([1]; oral administration 10 mg/kg) [µg/mL]	T1/2 ([1]; oral administration 10 mg/kg) [h]	Tmax ([1]; oral administration 10 mg/kg) [h]	F % ([1]; oral administration 10 mg/kg vs injection) [%]	IC50 (FAK recombinant protein) [µM]	IC50 (PC3 cells [2]) [µM]	IC50 (PC3 cells [3]) [µM]
COc1cc(C(=O)NC2CCN(C)CC2)c(F)cc1Nc1ncc(C(F)(F)F)c(Oc2cccc3c2C(=O)N(C)C3)n1	1.47926	1.352	3.62	5.03	0.63567	3.10	4	100.72	–	–	–
C=Cc1cc(C(=O)NC2CC3(CCN(C)CC3)C2)c(F)cc1Nc1ncc(C(F)(F)F)c(Oc2cccc3c2C(=O)N(C)C3)n1	–	–	–	–	–	–	–	–	< 0.01	> 2	0.005 to 0.05
